Measured values reported in patent US7351728B2, “Oxazolyl-aryloxyacetic acid derivatives and their use as PPAR agonists” (Eli Lilly and Company, priority 2003, dated 2008).

Test system: huPPARα
Experiment: Cotransfection assay in CV-1 cells, luciferase reporter (GAL4 chimeric system)
Assay type: cell-based, human
Settings: cotransfection efficacy relative to PPARα agonist reference molecule
Method: Cotransfection assays were carried out in CV-1 cells.

## Cc1oc(-c2ccccc2)nc1CCOc1ccc(OC(C)(Cc2ccccc2)C(=O)O)cc1 (stereo not shown) [Example 6, 2-Methyl-2-{4-[2-(5-methyl-2-phenyloxazol-4-yl)ethoxy]phenoxy}-3-phenylpropionic acid]
  huPPARα CTF Eff. (%): 80%
